Measurements as given in ChEMBL document CHEMBL4219244, “Blocking Alcoholic Steatosis in Mice with a Peripherally Restricted Purine Antagonist of the Type 1 Cannabinoid Receptor” (J Med Chem, 2018).

Organism: Homo sapiens
Experiment: Selectivity ratio of Ki for human CB2 to Ki for human CB1

Row | SMILES | Ratio Ki
1 | Clc1ccc(-n2c(-c3ccccc3Cl)nc3c(N4CCN(Cc5ccncc5)CC4)ncnc32)cc1 | 77
2 | Cc1c(CN2CCN(c3ncnc4c3nc(-c3ccccc3Cl)n4-c3ccc(Cl)cc3)CC2)cnn1C | 120
3 | Cc1nc(CN2CCN(c3ncnc4c3nc(-c3ccccc3Cl)n4-c3ccc(Cl)cc3)CC2)no1 | 150
